{
  "source": "patent US11149040B2",
  "about": "“Fused triazole agonists of the APJ receptor” (AMGEN INC., priority 2017, dated 2021)",
  "origin": "cited, not measured here",
  "details": "cited from earlier work",
  "data": [
    {"substance": "Apelin-13", "values": [
      {"measurement": "plasma half-life", "result": "< 5", "unit": "min"}
    ]}
  ]
}
